Patent publication US10993448B2, “Method for sanitizing fresh produce” (Dole Fresh Vegetables, Inc., priority 2014, dated 2021)

System: Non-selective mix
Assay: Suspension tests, non-selective agar
Format: cell-based, E. coli O157:H7, sv. Typhimurium, and Listeria monocytogenes
Settings: for % bacteria killed: listed as 40 ppm chlorine; for Average log reduction: vs water control

## chlorine
30 seconds at 4° C., Water 1.00 × 10^7
  Average (bacterial load): 3.25 × 10^3
30 seconds at 4° C.
  % bacteria killed: 99.968%
  Average log reduction: 3.49
30 seconds at 15° C., Water 8.46 × 10^6
  Average (bacterial load): 4.00 × 10^0
30 seconds at 15° C.
  % bacteria killed: 100%
  Average log reduction: 6.33
30 seconds at 40° C., Water 8.30 × 10^6
  Average (bacterial load): 2.00 × 10^0
30 seconds at 40° C.
  % bacteria killed: 100%
  Average log reduction: 6.62
90 seconds at 4° C., Water 6.22 × 10^6
  Average (bacterial load): 2.50 × 10^2
90 seconds at 4° C.
  % bacteria killed: 99.996%
  Average log reduction: 4.40
90 seconds at 15° C., Water 1.21 × 10^7
  Average (bacterial load): 8.00 × 10^0
90 seconds at 15° C.
  % bacteria killed: 100%
  Average log reduction: 6.18
90 seconds at 40° C., Water 9.76 × 10^6
  Average (bacterial load): 1.60 × 10^1
90 seconds at 40° C.
  % bacteria killed: 100%
  Average log reduction: 5.79
